Data published in patent publication US9782415B2, “Substituted pyrazolo[1,5-a]pyrimidine compounds as Trk kinase inhibitors” (Array BioPharma, Inc., priority 2009, dated 2017).

Amino acid sequences for entries named in this document (tags omitted). Residues count along the entry.
UniProt P04629, 440-796: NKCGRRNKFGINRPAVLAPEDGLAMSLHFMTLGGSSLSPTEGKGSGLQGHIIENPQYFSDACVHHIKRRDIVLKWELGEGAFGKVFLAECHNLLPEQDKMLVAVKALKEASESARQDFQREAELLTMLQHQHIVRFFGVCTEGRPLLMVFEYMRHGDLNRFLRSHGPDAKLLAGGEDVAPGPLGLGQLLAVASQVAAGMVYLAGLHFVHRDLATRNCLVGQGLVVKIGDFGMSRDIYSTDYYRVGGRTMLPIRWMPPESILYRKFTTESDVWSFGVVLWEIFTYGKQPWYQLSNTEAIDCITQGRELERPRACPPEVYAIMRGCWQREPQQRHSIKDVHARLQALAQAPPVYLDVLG

Biological target: histidine-tagged recombinant human TrkA, cytoplasmic domain (Homo sapiens (Human), UniProt P04629)
Assay: TrkA ELISA Assay
Assay type: biochemical
Settings: Table 2
Experimental: An enzyme-linked immunosorbant assay (ELISA) was used to assess TrkA kinase activity in the presence of inhibitors. […] The assay buffer consisted of 25 mM MOPS pH 7.5, 0.005% (v/v) Triton X-100 and 5 mM MgCl2. The reaction mixture was removed from the plate by washing with PBS containing 0.1% (v/v) Tween 20. […] After the addition of 1M phosphoric acid, the chromogenic substrate color intensity was quantitated via absorbance at 450 nm.

Cc1ncc(F)cc1[C@H]1CCCN1c1ccn2ncc(C(=O)N[C@H]3CC[C@H](O)CC3)c2n1 [Example 194, 5-((R)-2-(5-fluoro-2-methylpyridin-3-yl)pyrrolidin-1-yl)-N-((trans)-4-hydroxycyclohexyl)pyrazolo[1,5-a]pyrimidine-3-carboxamide]
IC50: 4.6 nM
